Measurements: article PMC7052193, “Nanobody-enabled monitoring of kappa opioid receptor states” (Nature Communications, 2020)
Several values for one entry are separate records, joined by “and”; a condition that tells them apart may be missing. Identical values can stand only once. Like-named read-outs stand apart in the source and are kept apart here.

Amino acid sequences for entries named in this document (tags omitted).
UniProt P28223, whole entry: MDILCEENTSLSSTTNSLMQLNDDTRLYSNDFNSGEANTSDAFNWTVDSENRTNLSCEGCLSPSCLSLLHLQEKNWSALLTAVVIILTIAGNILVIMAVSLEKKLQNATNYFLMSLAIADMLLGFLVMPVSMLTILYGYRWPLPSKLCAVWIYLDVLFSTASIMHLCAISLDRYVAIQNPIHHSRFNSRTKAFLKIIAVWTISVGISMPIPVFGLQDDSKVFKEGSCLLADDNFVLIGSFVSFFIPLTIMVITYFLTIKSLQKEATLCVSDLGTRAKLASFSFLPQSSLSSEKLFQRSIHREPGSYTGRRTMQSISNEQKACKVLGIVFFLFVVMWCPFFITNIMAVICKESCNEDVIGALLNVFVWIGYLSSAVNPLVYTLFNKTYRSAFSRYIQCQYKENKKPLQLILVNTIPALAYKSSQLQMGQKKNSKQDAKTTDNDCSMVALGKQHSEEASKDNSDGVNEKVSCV

Molecular target: T1, 5-HT2AR (Homo sapiens, UniProt P28223)
T1 construct: expressed in transfected cells; host or cells: HEK 293T
Type: cell-based
Details: 5-HT2AR wt, Log [Drug]

NCCc1c[nH]c2ccc(O)cc12 [5-HT]
Net BRET G protein activation, source data Figure 5c (M = -8): 32.7164 and 47.4294 and 40.3989 | Net BRET G protein activation, source data Figure 5c (M = -9): 66.9967 and 80.0215 and 73.6581 | Net BRET G protein activation, source data Figure 5c (M = -10): 93.6917 and 90.4905 and 92.6591 | Net BRET G protein activation, source data Figure 5c (M = -11): 73.653 and 95.9238 and 85.7404 | Net BRET G protein activation, source data Figure 5c (M = -12): 94.9129 and 91.3429 and 93.6659
